Measurements: ChEMBL document CHEMBL3826971 (Bioorg Med Chem Lett, 2016)

Biological target: Cholinesterases; ACHE & BCHE (Homo sapiens) (UniProt P06276+P22303)
Test: Selectivity ratio, ratio of IC50 for human plasma BChE to IC50 for human AChE

SMILES	Ratio IC50
Cc1c(OC(=O)N(C)C)c2c(c[n+]1C)COC(C(C)C)OC2 (stereo not given)	3.5
Cc1c(OC(=O)N(C)C)c2c(c[n+]1C)COC(C(C)(C)C)OC2 (stereo not given)	2.8
Cc1c(OC(=O)N(C)C)c2c(c[n+]1C)COC(C)(C)OC2	2.4
CCCCCCCC1OCc2c[n+](C)c(C)c(OC(=O)N(C)C)c2CO1 (stereo not given)	3.9
Cc1c(OC(=O)N(C)C)c2c(c[n+]1C)COCOC2	3.1
CCCC1OCc2c[n+](C)c(C)c(OC(=O)N(C)C)c2CO1 (stereo not given)	2.9
CCC1OCc2c[n+](C)c(C)c(OC(=O)N(C)C)c2CO1 (stereo not given)	2.9
CCCCCCCCC1OCc2c[n+](C)c(C)c(OC(=O)N(C)C)c2CO1 (stereo not given)	1.5
Cc1c(OC(=O)N(C)C)c2c(c[n+]1C)COC(C)OC2 (stereo not given)	6.9
CCCCCCCCCC(C)C1OCc2c[n+](C)c(C)c(OC(=O)N(C)C)c2CO1 (stereo not given)	1.3
